Laboratory results published in PubChem BioAssay AID2636 (Johns Hopkins Ion Channel Center, 2010).
Only a part is listed here, and it is no random draw. Some tests of the compounds listed are not included; inactive here does not mean inactive elsewhere. The source made the active and inactive calls.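 Rule for the calls: active = calcium signal cut by more than 3 SD below the full-agonist control yet still positive, in both repeats and the earlier primary screen; inactive = the rest.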

Amino acid sequences for entries named in this document (tags omitted).
UniProt Q9QUQ5, whole entry: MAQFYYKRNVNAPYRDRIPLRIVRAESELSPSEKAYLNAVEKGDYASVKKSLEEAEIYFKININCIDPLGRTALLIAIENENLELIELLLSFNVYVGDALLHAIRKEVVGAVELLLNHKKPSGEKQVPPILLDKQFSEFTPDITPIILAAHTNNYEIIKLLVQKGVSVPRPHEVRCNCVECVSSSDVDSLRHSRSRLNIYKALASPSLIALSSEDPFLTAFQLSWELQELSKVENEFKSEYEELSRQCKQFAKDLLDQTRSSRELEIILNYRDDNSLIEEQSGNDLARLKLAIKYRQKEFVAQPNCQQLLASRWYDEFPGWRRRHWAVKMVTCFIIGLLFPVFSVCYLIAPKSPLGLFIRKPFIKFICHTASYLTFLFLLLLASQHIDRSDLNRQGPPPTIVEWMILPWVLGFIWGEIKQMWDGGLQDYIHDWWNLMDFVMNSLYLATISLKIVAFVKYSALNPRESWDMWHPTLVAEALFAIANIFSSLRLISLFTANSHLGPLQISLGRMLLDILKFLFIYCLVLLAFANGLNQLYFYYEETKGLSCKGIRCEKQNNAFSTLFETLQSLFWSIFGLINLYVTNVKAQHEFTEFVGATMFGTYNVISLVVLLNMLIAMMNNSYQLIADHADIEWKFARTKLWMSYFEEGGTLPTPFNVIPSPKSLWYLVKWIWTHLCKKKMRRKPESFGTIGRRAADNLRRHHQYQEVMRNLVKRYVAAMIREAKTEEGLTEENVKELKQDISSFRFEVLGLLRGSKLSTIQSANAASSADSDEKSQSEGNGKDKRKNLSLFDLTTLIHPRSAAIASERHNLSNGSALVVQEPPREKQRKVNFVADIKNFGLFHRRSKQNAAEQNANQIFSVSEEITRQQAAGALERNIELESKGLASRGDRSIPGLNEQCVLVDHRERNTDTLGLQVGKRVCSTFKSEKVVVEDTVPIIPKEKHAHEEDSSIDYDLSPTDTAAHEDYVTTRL

Target: Short transient receptor potential channel 4 (Mus musculus) (UniProt Q9QUQ5)
Test: inhibitors of mouse TRPC4 channel, confirmation, cell-based, Fluo4, HEK293 TRPC4beta/mu-opioid (AID 2636)
Details: DAMGO, Fluo4 calcium flux, at 10 µM

Compound	outcome
CN(C)c1ccc(C(=O)NCC2(N(C)C)CCCCC2)cc1	inactive
